The results in this text go back to patent US20100297109A1, “METHODS FOR INHIBITING FASCIN” (Cornell University, priority 2007, published 2010).

For this assay, the target named is F-actin polymers (polymerized from monomeric rabbit G-actin) (rabbit) (UniProt P68135). As to the kind of experiment: cell-based or functional assay.

With “purified recombinant fascin protein (Example 5)”, the inhibition of fascin-induced F-actin bundle formation in the presence of the small molecule macroketone (fluorescence microscopy) is over 80%.
